Measured values: patent publication US20080098491A1, “MOUSE MODELS TO STUDY CACHEXIA” (ZOLTAN LABORATORIES LLC, priority 2006, published 2008)

Test system: MXT mouse mammary tumor
Experiment: Cisplatin-treated MXT tumor-bearing animals, human albumin (separate experiments, data not shown)
Assay type: in vivo
Settings: 16-mg per 1-kg s.c.
Experimental: Experiment 2. The commercial PALP used in this model for Exp. 1 was composed of PALP (˜10%), TF (˜12%), AT (˜30%), albumin (˜35%) and the degradation products of TF (˜13%). […] In this experiment, it was determined whether the other two major proteins, i.e. TF and AT, present in the commercial PALP preparation in addition to PALP, also influence cisplatin-induced loss of body weight or not. The mouse MXT mammary tumor was developed as described in Example 3. In the first group, animals remained untreated during the whole observation period. In the second group, starting on the 7th day after tumor implantation, mice were administered 3-mg per 1-kg of cisplatin i.p. 6-times every second day. […]

Substance: human albumin: human albumin, component of commercial PALP
- Effect on body weight in cisplatin-treated MXT tumor-bearing animals: did not alter body weight
